Measurements taken from ChEMBL document CHEMBL6127116, “Discovery of Potent and Selective Blockers Targeting the Epilepsy-Associated KNa1.1 Channel” (J Med Chem, 2024).

Assay: Inhibition of human wild type SLACK expressed in CHO cells by Whole-cell automated patch clamp assay
Format: cell-based

For `CCCCN(Cc1ccc(F)cc1)C1=NC2C(C(=O)N(Cc3cccc(OC)c3)C(=O)N2C)N1C` (stereo unspecified), the IC50 was 700 nM.
